Like-named read-outs stand apart in the source and are kept apart here.
Assays:
hCB2 = hCB2 (Homo sapiens, UniProt P34972); assay: radioligand displacement binding at CB2 ([3H]CP55940, membranes of CHO-K1 cells over-expressing receptor); conditions: for Binding affinity (Ki) at hCB2: displacement of [3H]CP55940, CHO-K1 membranes, average of 3-6 measurements
hCB1 [1] = molecular target: T1, hCB1 (Homo sapiens, UniProt P21554); assay: radioligand displacement binding at CB1 (membranes of CHO-K1 cells over-expressing receptor); conditions: for CB2 Ki/CB1 Ki selectivity ratio: CB1 versus CB2
hCB1 [2] = molecular target: T1, hCB1; assay: functional fluorescent CB1 activated Gαq16-coupled intracellular calcium mobilization assay in CHO-K1 cells; format: cell-based; set-up: expressed in transfected cells; host or cells: CHO-K1 (membranes)
[3] = read-out: Binding affinity (Ki) at hCB1, radioligand displacement, CHO-K1 membranes, average of 3-6 measurements
[4] = calcium mobilization, CHO-K1 cells, average of 3-6 measurements, read-out: Apparent antagonist dissociation constant (Ke) at hCB1

Protein sequences, listed by entry. Tags and fused reporters are not part of them.
UniProt P34972, whole entry: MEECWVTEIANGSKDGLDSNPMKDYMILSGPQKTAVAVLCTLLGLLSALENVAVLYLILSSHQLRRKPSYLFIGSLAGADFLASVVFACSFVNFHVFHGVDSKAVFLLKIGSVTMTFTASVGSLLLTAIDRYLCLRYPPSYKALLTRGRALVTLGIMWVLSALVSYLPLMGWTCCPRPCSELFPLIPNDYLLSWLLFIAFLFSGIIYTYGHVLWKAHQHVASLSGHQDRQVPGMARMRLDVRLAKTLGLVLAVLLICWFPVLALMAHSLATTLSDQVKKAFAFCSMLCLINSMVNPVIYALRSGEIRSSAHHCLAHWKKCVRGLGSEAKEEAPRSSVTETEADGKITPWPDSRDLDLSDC
UniProt P21554, whole entry: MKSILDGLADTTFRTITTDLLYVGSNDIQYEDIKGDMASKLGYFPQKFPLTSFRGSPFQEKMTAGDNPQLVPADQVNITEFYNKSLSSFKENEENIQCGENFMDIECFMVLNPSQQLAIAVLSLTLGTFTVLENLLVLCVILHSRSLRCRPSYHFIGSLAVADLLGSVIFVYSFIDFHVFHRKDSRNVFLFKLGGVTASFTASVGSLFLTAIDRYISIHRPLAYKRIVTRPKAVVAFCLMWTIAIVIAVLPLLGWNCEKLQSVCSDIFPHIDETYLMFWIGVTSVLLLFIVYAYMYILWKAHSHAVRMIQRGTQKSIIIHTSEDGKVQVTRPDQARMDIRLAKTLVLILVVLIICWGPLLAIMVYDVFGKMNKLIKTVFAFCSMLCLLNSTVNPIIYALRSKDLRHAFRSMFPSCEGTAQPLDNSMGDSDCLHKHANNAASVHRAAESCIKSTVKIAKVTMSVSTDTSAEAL

Row | SMILES | Ki (hCB2) [nM] | Kb (hCB1 [2]; [4]) [nM] | further results
1 | Fc1ccc(N2CCN(c3ncnc4c3nc(-c3ccccc3Cl)n4-c3ccc(Cl)cc3)CC2)cc1 [Compound 6, 8-(2-Chlorophenyl)-9-(4-chlorophenyl)-6-[4-(4-fluorophenyl)piperazin-1-yl]-9H-purine] | 3930 |  | 
2 | O=C(Nc1ccccc1)NC1CCN(c2ncnc3c2nc(-c2ccccc2Cl)n3-c2ccc(Cl)cc2)CC1 [Compound 18, 3-{1-[8-(2-Chlorophenyl)-9-(4-chlorophenyl)-9H-purin-6-yl]piperidin-4-yl}-1-phenylurea] | > 5000 | 30 | Ki (hCB1 [1]; [3]): 7 nM
3 | O=C(Nc1ccc(F)cc1F)NC1CCN(c2ncnc3c2nc(-c2ccccc2Cl)n3-c2ccc(Cl)cc2)CC1 [Compound 22, 3-{1-[8-(2-Chlorophenyl)-9-(4-chlorophenyl)-9H-purin-6-yl]piperidin-4-yl}-1-(2,4-difluorophenyl)urea] | > 40000 |  | 
4 | O=C(Nc1ccc(F)cc1)NC1CCN(c2ncnc3c2nc(-c2ccccc2Cl)n3-c2ccc(Cl)cc2)CC1 [Compound 23, 3-{1-[8-(2-Chlorophenyl)-9-(4-chlorophenyl)-9H-purin-6-yl]piperidin-4-yl}-1-(4-fluorophenyl)urea] | 8200 |  | Ki (hCB1 [1]; [3]): 22 nM; Kb (hCB1 [2]): 45 nM
5 | O=C(Nc1ccc(C(F)(F)F)nc1)NC1CCN(c2ncnc3c2nc(-c2ccccc2Cl)n3-c2ccc(Cl)cc2)CC1 [Compound 24, 3-{1-[8-(2-Chlorophenyl)-9-(4-chlorophenyl)-9H-purin-6-yl]piperidin-4-yl}-1-[6-(trifluoromethyl)pyridin-3-yl]urea] | > 7000 | 37 | Ki (hCB1 [1]): 28 nM; CB2 Ki/CB1 Ki selectivity ratio (hCB1 [1]): >250
6 | O=C(Nc1ccc(F)c(F)c1)N1CCN(c2ncnc3c2nc(-c2ccccc2Cl)n3-c2ccc(Cl)cc2)CC1 [Compound 42, 4-[8-(2-Chlorophenyl)-9-(4-chlorophenyl)-9H-purin-6-yl]-N-(3,4-difluorophenyl)piperazine-1-carboxamide] |  | 5 | Ki (hCB1 [1]; [3]): 5 nM
7 | N#Cc1ccc(N2CCN(c3ncnc4c3nc(-c3ccccc3Cl)n4-c3ccc(Cl)cc3)CC2)cc1 [Compound 62, 4-{4-[8-(2-Chlorophenyl)-9-(4-chlorophenyl)-9H-purin-6-yl]piperazin-1-yl}benzonitrile] |  |  | Binding affinity (Ki) at hCB2 (hCB2): inactive
8 | Clc1ccc(-n2c(-c3ccccc3Cl)nc3c(N4CCN(C5CCCCC5)CC4)ncnc32)cc1 [Compound 66, 8-(2-Chlorophenyl)-9-(4-chlorophenyl)-6-(4-cyclohexylpiperazin-1-yl)-9H-purine] | 112 | 17 | Ki (hCB1 [1]): 1.8 nM
9 | CC(c1ccccc1)N1CCN(c2ncnc3c2nc(-c2ccccc2Cl)n3-c2ccc(Cl)cc2)CC1 (stereo not drawn) [Compound 69, 8-(2-Chlorophenyl)-9-(4-chlorophenyl)-6-[4-(1-phenylethyl)piperazin-1-yl]-9H-purine] | 1280 |  | 
10 | Clc1ccc(-n2c(-c3ccccc3Cl)nc3c(N4CCN(CCc5ccccc5)CC4)ncnc32)cc1 [Compound 70, 8-(2-Chlorophenyl)-9-(4-chlorophenyl)-6-[4-(2-phenylethyl)piperazin-1-yl]-9H-purine] | 2140 |  | 
11 | COc1ccc(N2CCN(c3ncnc4c3nc(-c3ccccc3Cl)n4-c3ccc(Cl)cc3)CC2)cc1 [Compound 72, 8-(2-Chlorophenyl)-9-(4-chlorophenyl)-6-[4-(4-methoxyphenyl)piperazin-1-yl]-9H-purine] |  |  | Binding affinity (Ki) at hCB2 (hCB2): inactive
12 | N#Cc1ccccc1N1CCN(c2ncnc3c2nc(-c2ccccc2Cl)n3-c2ccc(Cl)cc2)CC1 [Compound 74, 2-{4-[8-(2-Chlorophenyl)-9-(4-chlorophenyl)-9H-purin-6-yl]piperazin-1-yl}benzonitrile] |  |  | Binding affinity (Ki) at hCB2 (hCB2): inactive
13 | N#Cc1ccccc1CN1CCN(c2ncnc3c2nc(-c2ccccc2Cl)n3-c2ccc(Cl)cc2)CC1 [Compound 75, 6-[4-(2-Cyanobenzyl)piperazin-1-yl]-8-(2-chlorophenyl)-9-(4-chlorophenyl)-9H-purine] | 20000 | 21 | CB2 Ki/CB1 Ki selectivity ratio (hCB1 [1]): 6700; Ki (hCB1 [1]; [3]): 3 nM
14 | Clc1ccc(-n2c(-c3ccccc3Cl)nc3c(N4CCN(c5ccccc5)CC4)ncnc32)cc1 [Compound 76, 8-(2-Chlorophenyl)-9-(4-chlorophenyl)-6-(4-phenylpiperazin-1-yl)-9H-purine] |  |  | Binding affinity (Ki) at hCB2 (hCB2): inactive
15 | Clc1ccc(CN2CCN(c3ncnc4c3nc(-c3ccccc3Cl)n4-c3ccc(Cl)cc3)CC2)cc1 [Compound 77, 6-[4-(4-Chlorobenzyl)piperazin-1-yl]-8-(2-chlorophenyl)-9-(4-chlorophenyl)-9H-purine] |  |  | Binding affinity (Ki) at hCB2 (hCB2): inactive
16 | O=C(N1CCN(c2ncnc3c2nc(-c2ccccc2Cl)n3-c2ccc(Cl)cc2)CC1)C(F)(F)F [Compound 87, 8-(2-Chlorophenyl)-9-(4-chlorophenyl)-6-[4-(trifluoroacetyl)piperazin-1-yl]-9H-purine] |  | 0.4 | 

Row | SMILES | Ki (hCB2) [nM] | Kb (hCB1 [2]; [4]) [nM] | further results
17 | Fc1ccccc1CN1CCN(c2ncnc3c2nc(-c2ccccc2Cl)n3-c2ccc(Cl)cc2)CC1 [Compound 96, 8-(2-Chlorophenyl)-9-(4-chlorophenyl)-6-[4-(2-fluorobenzyl)piperazin-1-yl]-9H-purine] | 2260 | 0.9 | Ki (hCB1 [1]): 6.8 nM
18 | Fc1ccc(CN2CCN(c3ncnc4c3nc(-c3ccccc3Cl)n4-c3ccc(Cl)cc3)CC2)cc1 [Compound 97, 8-(2-Chlorophenyl)-9-(4-chlorophenyl)-6-[4-(4-fluorobenzyl)piperazin-1-yl]-9H-purine] |  |  | Ki (hCB1 [1]): 3.6 nM; Binding affinity (Ki) at hCB2 (hCB2): inactive; Kb (hCB1 [2]): 1.5 nM
19 | Clc1ccc(-n2c(-c3ccccc3Cl)nc3c(N4CCN(Cc5ccccc5Cl)CC4)ncnc32)cc1 [Compound 98, 6-[4-(2-Chlorobenzyl)piperazin-1-yl]-8-(2-chlorophenyl)-9-(4-chlorophenyl)-9H-purine] | 775 |  | 
20 | Clc1ccc(-n2c(-c3ccccc3Cl)nc3c(N4CCN(Cc5cccc(Cl)c5)CC4)ncnc32)cc1 [Compound 99, 6-[4-(3-Chlorobenzyl)piperazin-1-yl]-8-(2-chlorophenyl)-9-(4-chlorophenyl)-9H-purine] | 54 |  | 
21 | Cc1ccc(CN2CCN(c3ncnc4c3nc(-c3ccccc3Cl)n4-c3ccc(Cl)cc3)CC2)cc1 [Compound 101, 8-(2-Chlorophenyl)-9-(4-chlorophenyl)-6-[4-(4-methylbenzyl)piperazin-1-yl]-9H-purine] |  |  | Binding affinity (Ki) at hCB2 (hCB2): inactive
22 | COc1ccc(CN2CCN(c3ncnc4c3nc(-c3ccccc3Cl)n4-c3ccc(Cl)cc3)CC2)cc1 [Compound 102, 8-(2-Chlorophenyl)-9-(4-chlorophenyl)-6-[4-(4-methoxybenzyl)piperazin-1-yl]-9H-purine] |  |  | Binding affinity (Ki) at hCB2 (hCB2): inactive
23 | CCCCC(=O)N1CCN(c2ncnc3c2nc(-c2ccccc2Cl)n3-c2ccc(Cl)cc2)CC1 [Compound 103, 8-(2-Chlorophenyl)-9-(4-chlorophenyl)-6-(4-pentanoylpiperazin-1-yl)-9H-purine] |  | 0.6 | 
24 | FC(F)(F)Oc1ccccc1CN1CCN(c2ncnc3c2nc(-c2ccccc2Cl)n3-c2ccc(Cl)cc2)CC1 [Compound 112, 8-(2-Chlorophenyl)-9-(4-chlorophenyl)-6-{4-[2-(trifluoromethoxy)benzyl]piperazin-1-yl}-9H-purine] |  | 4 | CB2 Ki/CB1 Ki selectivity ratio (hCB1 [1]): 38000; Ki (hCB1 [1]; [3]): 2 nM
25 | N=C(Nc1ccc(F)cc1)N1CCN(c2ncnc3c2nc(-c2ccccc2Cl)n3-c2ccc(Cl)cc2)CC1 [Compound 116, 4-[8-(2-chlorophenyl)-9-(4-chlorophenyl)-9H-purin-6-yl]-N-(4-fluorophenyl)piperazine-1-carboximidamide] |  | 510 | Ki (hCB1 [1]): 470 nM
26 | O=C(NC1CCCC1)N1CCN(c2ncnc3c2nc(-c2ccccc2Cl)n3-c2ccc(Cl)cc2)CC1 [Compound 117, 4-[8-(2-Chlorophenyl)-9-(4-chlorophenyl)-9H-purin-6-yl]-N-cyclopentylpiperazine-1-carboxamide] |  | 54 | 
27 | O=C(NC1(C(F)(F)F)CCCC1)N1CCN(c2ncnc3c2nc(-c2ccccc2Cl)n3-c2ccc(Cl)cc2)CC1 [Compound 118, 4-[8-(2-Chlorophenyl)-9-(4-chlorophenyl)-9H-purin-6-yl]-N-[1-(trifluoromethyl)cyclopentyl]piperazine-1-carboxamide] |  | 17 | 
28 | O=C(NC1CCCCC1)N1CCN(c2ncnc3c2nc(-c2ccccc2Cl)n3-c2ccc(Cl)cc2)CC1 [Compound 119, 4-[8-(2-chlorophenyl)-9-(4-chlorophenyl)-9H-purin-6-yl]-N-cyclohexylpiperazine-1-carboxamide] |  | 41 | 
29 | O=C(NCC1CCCCC1)N1CCN(c2ncnc3c2nc(-c2ccccc2Cl)n3-c2ccc(Cl)cc2)CC1 [Compound 120, 4-[8-(2-chlorophenyl)-9-(4-chlorophenyl)-9H-purin-6-yl]-N-(cyclohexylmethyl)piperazine-1-carboxamide] |  | 35 | 
30 | O=C(Nc1ccccc1)N1CCN(c2ncnc3c2nc(-c2ccccc2Cl)n3-c2ccc(Cl)cc2)CC1 [Compound 121, 4-[8-(2-chlorophenyl)-9-(4-chlorophenyl)-9H-purin-6-yl]-N-phenylpiperazine-1-carboxamide] |  | 3 | 
31 | O=C(Nc1ccccn1)N1CCN(c2ncnc3c2nc(-c2ccccc2Cl)n3-c2ccc(Cl)cc2)CC1 [Compound 122, 4-[8-(2-Chlorophenyl)-9-(4-chlorophenyl)-9H-purin-6-yl]-N-(pyridin-2-yl)piperazine-1-carboxamide] |  | 8 | 

From patent publication US10696677B2 (Research Triangle Institute, priority 2016, dated 2020)
